Data: patent US6926913B2, “Composition containing molecular iodine” (dated 2005)

Tested on: sulfur mustard (SM)-induced skin burns
Assay: Protective effect of iodine against sulfur mustard (SM)-induced skin burns in haired guinea pig model
Conditions: 0.1 ml of 2% solution s.c. 20 min prior to SM

CCN(CC)CC(=O)Nc1c(C)cccc1C
effect on the protective effect of iodine: no effect
